Measured values published in ChEMBL document CHEMBL3739352, “Anticonvulsant activity, crystal structures, and preliminary safety evaluation of N-trans-cinnamoyl derivatives of selected (un)modified aminoalkanols” (Eur J Med Chem, 2016).

Columns and labels:
[1] = Protection index, ratio of TD50 for neurotoxicity in ip dosed albino Carworth Farms No.1 mouse to ED50 for anticonvulsant activity in ip dosed albino Carworth Farms No.1 mouse assessed as protection against maximal electroshock-induced seizures; type: toxicity, organism-based; settings: in vivo, read-out: Ratio TD50/ED50
Method in brief: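 Graded i.p. doses in 0.5% methylcellulose were given to albino Carworth Farms No.1 mice. ED50 was determined in MES, scPTZ or 6-Hz (32 mA) tests, and TD50 by rotarod. Both were reported with 95% confidence intervals. PI was calculated as TD50/ED50.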

[2] = Protection index, ratio of TD50 for neurotoxicity in po dosed Sprague-Dawley rat to ED50 for anticonvulsant activity in po dosed Sprague-Dawley rat assessed as maximal electroshock-induced seizures; type: toxicity, organism-based; settings: in vivo

## NC(=O)N1c2ccccc2C=Cc2ccccc21 [CARBAMAZEPINE]
[1]
  selectivity ratio: 5.8
[2]
  selectivity ratio: > 68
